{
  "sequences": {"note": "Chains of the proteins cited; added tags and fusions are not shown.", "UniProt P25103, whole entry": "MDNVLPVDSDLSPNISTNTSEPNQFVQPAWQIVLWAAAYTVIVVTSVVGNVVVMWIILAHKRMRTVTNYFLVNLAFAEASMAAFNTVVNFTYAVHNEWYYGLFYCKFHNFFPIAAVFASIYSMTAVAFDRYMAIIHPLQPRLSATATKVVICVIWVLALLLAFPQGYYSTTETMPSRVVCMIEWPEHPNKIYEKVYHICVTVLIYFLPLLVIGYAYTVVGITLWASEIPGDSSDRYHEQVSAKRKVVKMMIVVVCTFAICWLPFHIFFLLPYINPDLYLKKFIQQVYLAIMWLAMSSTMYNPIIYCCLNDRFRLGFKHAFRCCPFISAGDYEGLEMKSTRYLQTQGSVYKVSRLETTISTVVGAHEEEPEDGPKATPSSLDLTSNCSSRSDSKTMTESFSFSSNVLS"},
  "source": "paper PMC10510324",
  "about": "“A Biomimetic C-Terminal Extension Strategy for Photocaging Amidated Neuropeptides” (Journal of the American Chemical Society, 2023)",
  "key": {"[1]": {"biological_target": "T1, neurokinin 1 receptor (NK1R) (Homo sapiens, UniProt P25103)", "T1 construct": "host or cells: HEK293T", "assay": "GloSensor cAMP assay of GPCR activation, NK1R (agonism and antagonism)", "type": "cell-based"}, "[2]": {"tested_on": "mu and delta opioid receptors (MOR and DOR)", "assay": "Enk-evoked outward (GIRK) current in hippocampal PV interneurons with CCK(8S)-NPP uncaging", "type": "cell-based, mouse", "conditions": "Enk 1 μM bath application; n = 5 cells from 2 mice; mean ± SEM", "description": "Data are expressed as the mean ± SEM. […] Data are expressed as the mean ± SEM. […] Data are expressed as the mean ± SEM. […] Data are expressed as the mean ± SEM.\nBrain slice preparation. All procedures were performed in accordance with protocols approved by the University of California San Diego Institutional Animal Care and Use Committee (IACUC) following guidelines described in the US National Institutes of Health Guide for Care and Use of Laboratory Animals (UCSD IACUC protocol S16171). Experiments were conducted using mice of both sexes and the data were combined. From Vip Cre; Rosa26-lsl-tdTomato (Ai14), mouse age ranged from P15-30. From Pvalb Cre; Rosa26-lsl-tdTomato (Ai14), mouse age ranged from P20-35. From Chat Cre; Rosa26-lsl-tdTomato (Ai14), mouse age ranged from P40-100. Mice were anesthetized with isoﬂurane and decapitated, and the brain was removed, blocked, and mounted in a VT1000S vibratome (Leica Instruments). For recordings from cortex and striatum, coronal slices (300 μm) were prepared, and for hippocampus, horizontal slices"}},
  "data": [
    {"substance": "SP-NPP-ds1: separated diastereomer of NPP-caged substance P", "values": [
      {"measurement": "activity at the NK1R", "setting": "[1]; all concentrations tested (up to 10 μM)", "result": "devoid of activity"},
      {"measurement": "antagonism of NK1R", "setting": "[1]; candidate antagonist 1 μM, 5 min before agonist SP", "result": "do not antagonize"}
    ]},
    {"substance": "[Leu]5-enkephalin", "values": [
      {"measurement": "percent current loss 5 min after Enk addition, Enk only", "setting": "[2]", "result": "31.0 ± 19.8"}
    ]},
    {"substance": "SP-NPP-ds2: separated diastereomer of NPP-caged substance P", "values": [
      {"measurement": "activation of the NK1R", "setting": "[1]; highest concentration tested, 10 μM, normalized to SP 300 nM", "result": "~50", "unit": "%"}
    ]}
  ]
}
